Results from patent US9848599B2, “Co-crystals of 3-iodopropynyl butylcarbamate” (priority 2012, dated 2017).

Experiment: Solubility in water
Conditions: relative to IPBC

Substance	aqueous solubility greater than that of IPBC
Co-Crystal Containing 3-iodopropynyl butylcarbamate and tetrabutyl ammonium iodide in a 3:1 Molar Ratio [Co-Crystal 3]	approx. 40%
Co-Crystal Containing 3-iodopropynyl butylcarbamate and calcium chloride in a 4:1 Molar Ratio [Co-Crystal 4]	approx. 50%
